The species named for this assay is Homo sapiens. Kind of assay: Selectivity ratio of Ki for CB2 receptor (unknown origin) to Ki for human CB1 receptor.

Among the data in ChEMBL document CHEMBL2434899, “Peripherally selective diphenyl purine antagonist of the CB1 receptor” (J Med Chem, 2013) are Ratio Ki values, retold here.

Consider `O=C(CC1CCCCC1)NC1CCN(c2ncnc3c2nc(-c2ccccc2Cl)n3-c2ccc(Cl)cc2)CC1`, for which the Ratio Ki is 1220.
